Apparent affinities of Ab-14 variants for a coronavirus HR2 peptide

Source: Engelhart et al. 2022 (doi:10.1038/s41597-022-01779-4), MIT Lincoln Laboratory and A-Alpha Bio; data file from the FLAb repository.

All variants were tested on one target, the spike HR2 peptide PDVDLGDISGINAS (SARS-CoV-2).

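Phage display of a naive human antibody library on the peptide gave the parent. The library (AAYL49) carries one to three amino acid substitutions per variant, with no insertions or deletions. Affinity was read by AlphaSeq, a pooled yeast mating assay with surface-displayed partners. After mating in shaken culture at 30 °C for 16 h, diploids were selected and their barcode pairs sequenced. Scores were corrected for input abundance and mapped to Kd with protein pairs of known affinity run in the same pool. Each pool was mated in three replicate cultures.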

Ab-14 is the parent antibody, in scFv form: VH, then a (GGGGS)3 linker, then VL. The light chain is unchanged in all variants.
VH: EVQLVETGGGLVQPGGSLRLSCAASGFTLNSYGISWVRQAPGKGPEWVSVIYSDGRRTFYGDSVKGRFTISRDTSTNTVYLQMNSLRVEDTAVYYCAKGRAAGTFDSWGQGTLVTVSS
VL: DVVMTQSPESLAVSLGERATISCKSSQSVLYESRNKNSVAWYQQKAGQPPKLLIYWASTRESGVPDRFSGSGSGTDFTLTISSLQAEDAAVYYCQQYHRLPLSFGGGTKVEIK

Substitutions are numbered in sequence along the VH above, starting at 1 (not Kabat).
This list gathers variants with a substitution at G99 (VH, numbered from residue 1).
Each Kd is an estimate from the mating assay, the geometric mean of the replicates in which the pair was seen; lower is stronger.
Where no diploid with the target was found in any replicate, the entry reads "no signal": below detection, most likely a poor binder, though not proof of it.
As a blank, each scFv also met three strains without target: over library AAYL49, 15% of these pairings were detected, typically at 11 µM and seldom below 680 nM.

The variant G99T gave 12 nM (3 of 3 replicates).
The variant V50Q+D62Q+G99Y gave 190 nM (1 of 3 replicates).
The variant Y52E+G55T+G99V gave 53 µM (2 of 3 replicates).
The variant G99Q+A102I+G103M gave no signal (0 of 3 replicates).
The variant V50Q+G99M gave 18 µM (1 of 3 replicates).
The variant G99D+A101S gave 23 nM (3 of 3 replicates).
The variant Y60A+G99V gave no signal (0 of 3 replicates).
The variant T58R+V64G+G99T gave 290 nM (3 of 3 replicates).
The variant K65L+G99F+A102I gave no signal (0 of 3 replicates).
The variant G99N+A101Y+D106C gave 70 nM (3 of 3 replicates).
The variant S63L+G99D gave no signal (0 of 3 replicates).
The variant F27C+G61P+G99L gave no signal (0 of 3 replicates).
The variant S53T+G99H gave 450 nM (3 of 3 replicates).
The variant T28P+G55M+G99V gave 6.2 µM (1 of 3 replicates).
The variant V64R+G99A+R100L gave 10 µM (2 of 3 replicates).
The variant G26T+G99F+A102V gave no signal (0 of 3 replicates).
The variant S35H+S63N+G99D gave 7.4 nM (3 of 3 replicates).
The variant G99N gave no signal (0 of 3 replicates).
The variant G99K+G103M+F105W gave no signal (0 of 3 replicates).
The variant I51Q+G99L+D106I gave 63 µM (2 of 3 replicates).
The variant S35H+R57K+G99Q gave no signal (0 of 3 replicates).
The variant G99C gave 24 nM (3 of 3 replicates).
The variant N30M+Y32G+G99S gave 36 µM (1 of 3 replicates).
The variant F27G+K65G+G99N gave 18 µM (2 of 3 replicates).
The variant R57C+Y60M+G99K gave 200 µM (1 of 3 replicates).
The variant G99Q+F105E gave no signal (0 of 3 replicates).
The variant G99C+G103S gave no signal (0 of 3 replicates).
The variant N30Q+I34K+G99R gave 140 nM (3 of 3 replicates).
The variant L29T+K65Y+G99S gave 1.2 µM (3 of 3 replicates).
The variant R56M+G99Y+S107A gave 60 nM (1 of 3 replicates).
The variant Y52P+G99W gave no signal (0 of 3 replicates).
The variant R57T+G99Q+D106C gave 790 nM (1 of 3 replicates).
The variant S31C+T58P+G99Y gave 32 µM (2 of 3 replicates).
The variant S35P+R57N+G99C gave no signal (0 of 3 replicates).
The variant S63F+G99K+S107G gave no signal (0 of 3 replicates).
The variant Y52L+G99C+R100I gave no signal (0 of 3 replicates).
The variant G33Q+S35M+G99I gave no signal (0 of 3 replicates).
The variant R57L+G99D+F105R gave 20 µM (1 of 3 replicates).
The variant G26D+G55M+G99T gave 28 µM (1 of 3 replicates).
The variant Y60G+S63H+G99L gave 79 µM (3 of 3 replicates).
The variant T28P+D54W+G99S gave no signal (0 of 3 replicates).
The variant Y52R+R57P+G99C gave no signal (0 of 3 replicates).
The variant D54P+V64A+G99C gave 5.3 µM (1 of 3 replicates).
The variant I51E+G99R+R100H gave no signal (0 of 3 replicates).
The variant T58A+G99I+A102L gave 3.2 µM (1 of 3 replicates).
The variant N30H+R57I+G99S gave 31 µM (3 of 3 replicates).
The variant G33M+G99F+R100L gave no signal (0 of 3 replicates).
The variant F27V+G99T+G103L gave 12 µM (2 of 3 replicates).
The variant S63I+G99D gave no signal (0 of 3 replicates).
The variant R56P+G99S+D106P gave no signal (0 of 3 replicates).

From the list, the first 8 with no signal in any replicate:

changes	apparent Kd	detected
G99Q+A102I+G103M	no signal	0 of 3
Y60A+G99V	no signal	0 of 3
K65L+G99F+A102I	no signal	0 of 3
S63L+G99D	no signal	0 of 3
F27C+G61P+G99L	no signal	0 of 3
G26T+G99F+A102V	no signal	0 of 3
G99N	no signal	0 of 3
G99K+G103M+F105W	no signal	0 of 3